Measurements from US4760029A, “Assay for D-1 antagonistic activity of neuroleptic drugs” (Schering Corporation, priority 1984, dated 1988).

Sequences of proteins named here, by UniProt entry; tags and fusion partners are left off.
UniProt P18901, whole entry: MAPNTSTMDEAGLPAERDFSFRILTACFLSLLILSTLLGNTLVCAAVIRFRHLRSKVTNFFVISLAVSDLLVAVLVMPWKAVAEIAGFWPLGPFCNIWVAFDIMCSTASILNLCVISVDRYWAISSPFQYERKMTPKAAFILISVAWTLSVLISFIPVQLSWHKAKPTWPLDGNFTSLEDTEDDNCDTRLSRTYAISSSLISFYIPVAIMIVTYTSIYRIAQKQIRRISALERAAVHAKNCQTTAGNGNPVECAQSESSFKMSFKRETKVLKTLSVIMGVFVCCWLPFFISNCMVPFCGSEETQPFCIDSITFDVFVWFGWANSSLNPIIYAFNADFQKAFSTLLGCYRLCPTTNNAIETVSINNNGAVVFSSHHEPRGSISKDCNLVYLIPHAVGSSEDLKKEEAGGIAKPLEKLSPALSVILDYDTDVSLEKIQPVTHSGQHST

Target: D-1 receptor (Rattus norvegicus, UniProt P18901)
Settings: rat striatum; for potency in inhibiting [N-methyl-^3 H] Compound binding: competition curves

| SMILES | potency in inhibiting [N-methyl-^3 H] Compound binding | Hill coefficient (slope of Hill plot) (competition with fixed concentration of [N-methyl-^3 H] Compound) |
| --- | --- | --- |
| CN1CCc2cc(Cl)c(O)cc2[C@@H](c2ccccc2)C1 [Compound, R-(+)-8-chloro-2,3,4,5-tetrahydro-3-methyl-5-phenyl-1H-3-benzazepin-7-ol] | most potent | 1.02 |
| CN1CCc2cc(Cl)c(O)cc2[C@H](c2ccccc2)C1 [S-isomer of Compound] | greatly reduced potency |  |
